“Also recorded” adds a separate entry of the source.
Tested on: splenocytes
Assay: Splenocyte proliferation (tritiated thymidine uptake) 48 hours after pseudofracture trauma, mice given 1400 W
Assay type: in vivo
Conditions: C57BL/6 mice, 1400 W 5 mg/kg intraperitoneally, antiCD3e 1 μg/ml (FIG. 5)

Compound: CC(=N)NCc1cccc(CN)c1 [1400 W, N-(3-(Aminomethyl)benzyl)acetamidine]
- Splenocyte proliferative responses to antiCD3e after trauma: restores the proliferation response; also recorded: restored

Source: patent US20130102662A1, “USE OF INDUCIBLE NITRIC OXIDE SYNTHASE INHIBITORS AND NITRIC OXIDE […] INHIBIT POST-TRAUMATIC IMMUNODEPRESSION” (University of Pittsburgh - of the Commonwealth System of …, priority 2011, published 2013)
